In assay [1] the target is Minimal LH1 antenna complex (Rba. sphaeroides | Tch. tepidum).
Assay [2] addresses Chimeric LH1 antenna complex (Rba. sphaeroides | Tch. tepidum).
For assay [3], the target named is WT Rba. sphaeroides LH1 antenna complex (Rba. sphaeroides) (UniProt P0C0X9).
In assay [4] the target is Tch. tepidum LH1 antenna complex expressed in Rba. sphaeroides (Tch. tepidum) (UniProt D2Z0P2).

With “Rba. sphaeroides reaction centre (from UniProt P0C0Y7 1-260; P0C0Y9 1-308; P0C0Y8 1-282) (complex)”, the fluorescence lifetime τ1 of LH1 (energy transfer to the RC), native membranes in assay [1] was found to be 367 ps; in assay [2], 313 ps; in assay [3], 264 ps; in assay [4], 713 ps. Further, the fluorescence lifetime τ1 of LH1 (energy transfer to the RC), purified in β-DDM in assay [1] was 331 ps; in assay [2], 314 ps; in assay [3] it was 295 ps. Also, the fluorescence lifetime τ2 of LH1 (energy transfer to the RC), purified in β-DDM in assay [3] worked out at 853 ps. The same substance yielded a fluorescence lifetime τ1 of LH1 (energy transfer to the RC), purified in β-DDM, free of RCs in assay [4] of 842 ps.

Source of the values: paper PMC5604489.
